From patent US10519162B2, “6,7-dihydropyrazolo[1,5-α]pyrazin-4(5H)-one compounds and their use as negative allosteric modulators of mGluR2 receptors” (Janssen Pharmaceutica NV, priority 2014, dated 2019)

Sequences of proteins named here, by UniProt entry; tags and fusion partners are left off. Residues count along the entry.
UniProt Q14416, 19-872 limits assumed: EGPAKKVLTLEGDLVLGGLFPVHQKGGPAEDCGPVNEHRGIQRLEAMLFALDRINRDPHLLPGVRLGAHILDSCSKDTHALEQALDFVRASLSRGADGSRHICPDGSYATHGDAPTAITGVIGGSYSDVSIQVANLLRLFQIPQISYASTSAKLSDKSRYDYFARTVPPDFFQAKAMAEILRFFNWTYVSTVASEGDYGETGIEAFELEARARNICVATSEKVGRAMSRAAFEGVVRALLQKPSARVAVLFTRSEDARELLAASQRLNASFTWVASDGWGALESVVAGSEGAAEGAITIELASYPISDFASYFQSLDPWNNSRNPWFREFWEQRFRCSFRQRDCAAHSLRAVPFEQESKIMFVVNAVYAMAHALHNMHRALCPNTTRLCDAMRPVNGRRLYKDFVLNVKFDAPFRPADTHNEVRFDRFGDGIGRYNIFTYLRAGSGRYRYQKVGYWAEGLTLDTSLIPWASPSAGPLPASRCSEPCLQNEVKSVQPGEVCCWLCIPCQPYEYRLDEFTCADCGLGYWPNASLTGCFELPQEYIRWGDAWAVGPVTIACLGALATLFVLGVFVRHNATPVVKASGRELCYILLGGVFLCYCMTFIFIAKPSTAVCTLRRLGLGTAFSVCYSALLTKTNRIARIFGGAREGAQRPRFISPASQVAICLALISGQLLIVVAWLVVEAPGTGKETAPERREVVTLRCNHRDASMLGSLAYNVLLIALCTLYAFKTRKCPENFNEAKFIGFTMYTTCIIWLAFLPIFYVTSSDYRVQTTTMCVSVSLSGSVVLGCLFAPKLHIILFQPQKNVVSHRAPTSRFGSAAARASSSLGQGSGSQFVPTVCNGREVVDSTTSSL

Legend:
rats = assay: Reversal of the effect of the mGluR2 PAM JNJ-42153605-induced inhibition of scopolamine-induced hyperlocomotion (SCOP JNJ-42153605); settings: PO (oral route), reversal criterion total distance >1500 cm
Method: 2) Reversal of the Effect of the mGluR2 PAM JNJ-42153605-Induced Inhibition of Scopolamine-Induced Hyperlocomotion Apparatus
Motor activity was measured in microprocessor-based motor activity arenas (closed gray PVC cylinders with a height of 39 cm and a diameter of 31 cm). Each arena was placed on an infrared LED (8×8 LEDs) lit box (white PVC squared box; 40×40 cm^2; height 12.5 cm. An infrared-sensitive tube camera and a white light source were mounted to the ceiling above the observation chamber to track the animal. The total distance traveled (cm) was recorded and analyzed using the Noldus Ethovision XT Video Tracking System (Version 7.0.418; Noldus, Wageningen, The Netherlands). The intensity of the light within the activity cages (measured in the centre at the level of the floor) ranged between 4 and 8 LUX.
The rats were pretreated with test compound or vehicle at 60 min before the start of the activity recordings and placed into individual cages. The rats were challenged with JNJ-42153605 (3-(cyclopropylmethyl)-7-(4-phenylpiperidin-1-yl)-8-(trifluoromethyl)[1,2,4]triazolo[4,3-a]pyridine; WO2010/130424; Cid et al. J. Med. Chem. 2012, 55, 8770-8789) (20 mg/kg, i.v.) 30 min before the start of the activity recording combined with scopolamine (0.16 mg/kg, i.v.) just before the start of the activity measurements. Immediately after the injection of scopolamine, the rats were placed into the activity monitors and total distance travelled over the first 30 min was measured.
Solvent-Pretreated Control Rats.
Animals receiving the combination of JNJ-42153605 and scopolamine (n=433) almost always travelled a distance of less than 1500 cm (<1500 cm) (only 2.5% of the control rats travelled a distance of more than 1500 cm (>1500 cm)). On the other hand, animals challenged with scopolamine alone (n=215) always travelled a total distance of more than 1500 cm (>1500 cm) and almost always (in 95.8% of the rats) a distance of more than 4400 cm (>4400 cm). […] For reversal of the inhibitory effect of JNJ-42153605 on the scopolamine-induced hyperlocomotion, the following all-or-none criteria were adopted: (1) reversal: total distance >1500 cm.

human mGlu2 receptor = human mGlu2 receptor (Homo sapiens, UniProt Q14416); assay: [35S]GTPγS binding assay (mGluR2 negative allosteric modulation, glutamate ~EC80 60 μM); settings: for GTPγS-hmGluR2 anGT pIC50: membranes from CHO cells transfected with human mGlu2 receptor, glutamate ~EC80 (60 μM), pIC50 = −log IC50 (M); for GTPγS-hmGluR2 anGT Emax: maximal % inhibition relative to the control glutamate response (EC80 glutamate)
Description: The compounds provided in the present invention are negative allosteric modulators of mGluR2. These compounds appear to inhibit glutamate responses by binding to an allosteric site other than the glutamate binding site. The response of mGluR2 to a concentration of glutamate is decreased when compounds of Formula (I) are present. Compounds of Formula (I) are expected to have their effect substantially at mGluR2 by virtue of their ability to reduce the function of the receptor. The effects of negative allosteric modulators tested at mGluR2 using the [^35S]GTPγS binding assay method described below and which is suitable for the identification of such compounds, and more particularly the compounds according to Formula (I), are shown in Table 7.
1) [^35S]GTPγS Binding Assay
The [^35S]GTPγS binding assay is a functional membrane-based assay used to study G-protein coupled receptor (GPCR) function whereby incorporation of a non-hydrolysable form of GTP, [^35S]GTPγS (guanosine 5′-triphosphate, labelled with gamma-emitting ^35S), is measured. The G-protein a subunit catalyzes the exchange of guanosine 5′-diphosphate (GDP) by guanosine triphosphate (GTP) and on activation of the GPCR by an agonist, [^35S]GTPγS, becomes incorporated and cannot be cleaved to continue the exchange cycle (Harper (1998) Current Protocols in Pharmacology 2.6.1-10, John Wiley & Sons, Inc.). […] Here we describe the use of the [^35S]GTPγS binding assay using membranes from cells transfected with the human mGlu2 receptor and adapted from Schaffhauser et al. (Molecular Pharmacology, 2003, […]) for the detection of the negative allosteric modulation (NAM) properties of the compounds of this invention.
CHO-cells were cultured to pre-confluence and stimulated with 5 mM butyrate for 24 h. Cells were then collected by scraping in PBS and cell suspension was centrifuged (10 min at 4000 RPM in benchtop centrifuge). Supernatant was discarded and pellet gently resuspended in 50 mM Tris-HCl, pH 7.4 by mixing with an Ultra Turrax homogenizer. The suspension was centrifuged at 12,400 RPM (Sorvall F14S-6x250Y) for 10 minutes and the supernatant discarded. The pellet was homogenized in 5 mM Tris-HCl, pH 7.4 using an Ultra Turrax homogenizer and centrifuged again (13,000 RPM, 20 min, 4° C.). The final pellet was resuspended in 50 mM Tris-HCl, pH 7.4 and stored at −80° C. in appropriate aliquots before use. Protein concentration was determined by the Bradford method (Bio-Rad, USA) with bovine serum albumin as standard.
[^35S]GTPγS Binding Assay
Measurement of mGluR2 negative allosteric modulatory activity of test compounds was performed as follows. Test compounds and glutamate were diluted in assay buffer containing 10 mM HEPES acid, 10 mM HEPES salt, pH 7.4, 100 mM NaCl, 3 mM MgCl2 and 10 mM GDP. Human mGlu2 receptor-containing membranes were thawed on ice and diluted in assay buffer supplemented with 18 μg/ml saponin. Membranes were pre-incubated with compound together with a predefined (˜EC80) concentration of glutamate (60 μM) for 30 min at 30° C. After addition of [^35S]GTPγS (f.c. 0.1 nM), assay mixtures were shaken briefly and further incubated to allow [^35S]GTPγS incorporation on activation (30 minutes, 30° C.). Final assay mixtures contained 7 μg of membrane protein in 10 mM HEPES acid, 10 mM HEPES salt, pH 7.4, 100 mM NaCl, 3 mM MgCl2, 10 μM GDP and 10 μg/ml saponin. Total reaction volume was 200 μl. Reactions were terminated by rapid filtration through Unifilter-96 GF/B plates (Perkin Elmer, Massachusetts, USA) using a 96-well filtermate universal harvester. Filters were washed 6 times with ice-cold 10 mM NaH2PO4/10 mM Na2HPO4, pH 7.4. Filters were then air-dried, and 30 μl of liquid scintillation cocktail (Microscint-O) was added to each well. Membrane-bound radioactivity was counted in a Topcount.
The concentration-response curves of representative compounds of the present invention were generated using the Lexis software interface (developed at J&J). […]

Male Wiga Wistar rats = assay: Reversal of LY-404039-induced decrease of palpebral opening in apomorphine-challenged rats (APO LY-404039); assay type: in vivo, rat; settings: PO (oral route), tested form: HCl;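 also: Reversal defined as cumulative palpebral opening score above 26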
Method: B) In Vivo Pharmacology 1) Reversal of LY-404039-Induced Decrease of Palpebral Opening in Apomorphine-Challenged Rats.
Male Wiga Wistar rats (Crl:WI; Charles River Germany; 220±40 g) were housed under standard laboratory conditions (21±2° C.; 50-65% relative humidity; light-dark cycle set at 12 h; lights on at 6.00 h) and fasted overnight prior to the start of the experiments (tap water remained available ad libitum). During the test period, they were housed in individual cages. Palpebral opening was scored every 5 min over the first hour after injection of apomorphine (1.0 mg/kg, i.v.) in animals either pretreated or not pretreated with LY-404039 (2.5 mg/kg, s.c.) at 1 h prior to the apomorphine injection. The animals were also pretreated with test compound or solvent at a predefined interval before apomorphine challenge. The score system was: (5) exophthalmos, (4) wide open, (3) open for three-quarters, (2) half open, (1) open for one-quarter, (0) closed. The scores for palpebral opening were cumulated over the 60-min observation period. A cumulative palpebral opening score >26 was selected for drug-induced reversal of the LY-404039-induced decrease of palpebral opening (occurrence in 3.2% of control animals pretreated with LY-404039 (n=154) versus in 99.5% of control rats not pretreated with LY-404039 (n=6335)). […]

## C[C@H]1CN(c2ccc(C(F)(F)F)cc2)C(=O)c2c(NC(=O)c3cnc(N)nc3)cnn21
rats
  ED50 SCOP JNJ-42153605: >2.5 mg/kg
Human mGlu2 receptor
  GTPγS-hmGluR2 anGT pIC50: 7.81

## Cc1cnc(N)c(C(=O)Nc2cnn3c2C(=O)N(c2ccc(C(F)(F)F)c(Cl)c2)C[C@@H]3C)c1
Human mGlu2 receptor; tested form: TFA
  GTPγS-hmGluR2 anGT pIC50: 9.15

## COCC1CN(c2ccc(C(F)(F)F)cc2)C(=O)c2c(NC(=O)c3ccc(N)nc3)cnn21 (stereo not drawn)
Human mGlu2 receptor
  GTPγS-hmGluR2 anGT Emax: 110%
  GTPγS-hmGluR2 anGT pIC50: 7.57

## Cc1nccc(C(=O)Nc2cnn3c2C(=O)N(c2ccc(C(F)(F)F)cc2)C[C@@H]3C)c1C
Human mGlu2 receptor; tested form: HCl
  GTPγS-hmGluR2 anGT pIC50: 7.03

## C[C@H]1CN(c2ccc(C(F)(F)F)c(Cl)c2)C(=O)c2c(NC(=O)c3ccccn3)cnn21
rats
  ED50 SCOP JNJ-42153605: >0.63 mg/kg
Human mGlu2 receptor
  GTPγS-hmGluR2 anGT Emax: 110%
  GTPγS-hmGluR2 anGT pIC50: 8.76

## C[C@H]1CN(c2ccc(C(F)(F)F)cc2)C(=O)c2c(NC(=O)c3ccc[n+]([O-])c3)cnn21
rats
  ED50 SCOP JNJ-42153605: >0.63 mg/kg
Human mGlu2 receptor
  GTPγS-hmGluR2 anGT pIC50: 7.48

## COCC1CN(c2ccc(C(F)(F)F)cc2)C(=O)c2c(NC(=O)c3ccccc3F)cnn21 (stereo not drawn)
Human mGlu2 receptor
  GTPγS-hmGluR2 anGT pIC50: 7.52

## C[C@H]1CN(c2ccc(C(F)(F)F)c(Cl)c2)C(=O)c2c(NC(=O)c3cncc(F)c3)cnn21
rats
  ED50 SCOP JNJ-42153605: >0.63 mg/kg
Human mGlu2 receptor
  GTPγS-hmGluR2 anGT pIC50: 8.63

## COCC1CN(c2ccc(C(F)(F)F)c(Cl)c2)C(=O)c2c(NC(=O)c3ccc(N)nc3)cnn21 (stereo not drawn)
Human mGlu2 receptor
  GTPγS-hmGluR2 anGT Emax: 111%
  GTPγS-hmGluR2 anGT pIC50: 8.38

## C[C@H]1CN(c2ccc(Cl)c(Cl)c2)C(=O)c2c(NC(=O)c3cccnc3)cnn21
Male Wiga Wistar rats
  ED50 APO LY-404039: >0.63 mg/kg
rats; tested form: HCl
  ED50 SCOP JNJ-42153605: >0.63 mg/kg
